# Yeast mating assay 2: variants of the scFv Ab-91

Data: MIT Lincoln Laboratory AlphaSeq set, Engelhart et al. 2022, doi:10.1038/s41597-022-01779-4, as distributed in FLAb.

Target peptide (SARS-CoV-2 spike, HR2 region): PDVDLGDISGINAS

Parent: Ab-91, a human scFv built as VL, three GGGGS repeats, VH. Only the CDRs of the heavy chain vary.
VL: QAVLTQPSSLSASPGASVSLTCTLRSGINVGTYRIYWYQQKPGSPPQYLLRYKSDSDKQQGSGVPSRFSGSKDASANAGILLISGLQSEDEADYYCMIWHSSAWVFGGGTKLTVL
VH: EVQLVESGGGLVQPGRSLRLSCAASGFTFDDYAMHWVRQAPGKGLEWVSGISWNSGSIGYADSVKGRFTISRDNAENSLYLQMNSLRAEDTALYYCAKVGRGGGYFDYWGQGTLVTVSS

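The parent was found by panning a naive human phage display library on the peptide. In library AAYL51, one, two or three CDR residues were substituted; doubles and triples were drawn at random. The assay is AlphaSeq: two haploid yeast populations carry antibody and antigen on their surface. Mating (16 h, 30 °C) was followed by selection of diploids and sequencing of their barcodes. Read counts were normalised to the haploid input and turned into Kd by a linear fit to BCL2-family pairs of known affinity, for each replicate. The assay was run in three technical replicates.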

Changes read parent residue, position, new residue, counted from the first residue of the VH shown. The read-out is the apparent dissociation constant on a log10 scale (nM): the lower, the stronger. A mean of the replicates is given; it leaves out those without a signal. "nd" means that the variant was in the library but no mating with the target was seen in that replicate; the authors take this as a sign of poor binding, and no number exists. In this assay the parent's reference entry averaged 1.86; its copy inside this library read 0.88. Empty control strains, which show no peptide, gave a signal in 21% of pairings with library AAYL51; the median was 4.54 and 95% of these signals were weaker than 3.26. No background was subtracted. Also given: how often the same scFv was detected with the empty control strains, with their mean in brackets.

changes	log10 Kd, replicates	mean log10 Kd (nM)	control signals
A33I+G50P+G102K	3.99 nd nd	3.99	1 of 9 (5.12)
V64Q+R101F+G102F	nd nd nd	nd	0 of 9
G26Q+V64L+K65D	nd nd nd	nd	1 of 9 (4.73)
G26V+K65H+R101G	nd nd nd	nd	0 of 9
A33M+N54H+G104P	5.09 6.05 5.36	5.50	5 of 9 (4.33)
F27D+H35Q+V99S	nd nd nd	nd	0 of 9
G100S+G102S+D107R	4.59 5.90 5.35	5.28	8 of 9 (5.48)
F27I+F29K+S55V	3.52 nd nd	3.52	1 of 9 (3.88)
A33N+W53C	5.30 nd 4.33	4.81	5 of 9 (4.73)
G59I+A61G+Y108W	nd 3.04 nd	3.04	2 of 9 (3.78)
D62P+V64A+K65N	4.41 nd nd	4.41	1 of 9 (4.67)
F27A+N54V+G100S	nd 4.48 nd	4.48	0 of 9
A33T+G104W+F106N	nd nd nd	nd	0 of 9
T28A+A61C+G100Q	nd nd nd	nd	1 of 9 (4.39)
Y32R+I51P+D107I	nd nd nd	nd	2 of 9 (3.79)
A33N+G50N+V64S	nd nd nd	nd	1 of 9 (4.07)
G100I+Y105N+Y108E	nd nd nd	nd	0 of 9
S57N+A61N+R101K	nd nd nd	nd	0 of 9
Y32C+I58D+Y60M	3.56 nd nd	3.56	2 of 9 (4.75)
S63Y+Y105N	nd nd nd	nd	0 of 9
Y32A+H35I+G59M	3.59 nd nd	3.59	0 of 9
T28W+D31N+S63C	1.95 1.19 1.05	1.40	0 of 9
S57T+V64N+V99I	nd nd nd	nd	0 of 9
G26K+S52R+G59Q	3.97 nd nd	3.97	0 of 9
S63R	1.48 1.57 1.00	1.35	1 of 9 (4.07)
F27I+Y60M+D62I	nd nd nd	nd	0 of 9
G50I+R101C	nd nd nd	nd	0 of 9
M34G+G56E+A61H	nd nd nd	nd	0 of 9
T28Q+D30Q+V99K	nd nd nd	nd	1 of 9 (3.67)
W53K+N54I+Y105E	nd nd nd	nd	0 of 9
T28W+S52T	nd nd nd	nd	1 of 9 (1.61)
W53E+V99C+D107G	5.97 nd nd	5.97	2 of 9 (4.54)
F27N+M34F+D107Y	5.07 4.74 nd	4.91	4 of 9 (4.97)
S55N+V64W	nd nd nd	nd	0 of 9
W53Q+S57K+K65C	4.39 nd 4.67	4.53	1 of 9 (5.08)
A33T+G50V+W53Q	3.90 nd nd	3.90	2 of 9 (4.07)
G50L+N54D+G104S	nd nd nd	nd	0 of 9
K65N+G100A+G104N	nd nd nd	nd	0 of 9
G26N+G59W+G100P	nd nd nd	nd	0 of 9
F27K+G102Q+F106V	nd nd nd	nd	2 of 9 (4.29)
S55I+D62I	nd nd nd	nd	0 of 9
Y60S+D62S+G103W	4.87 nd 5.63	5.25	5 of 9 (5.33)
F27L+K65A	nd nd nd	nd	1 of 9 (3.51)
D62T+K65L+D107K	nd nd nd	nd	0 of 9
A33G+K65G+Y105V	2.29 3.92 nd	3.10	0 of 9
T28F+G56I+F106V	nd nd nd	nd	0 of 9
H35C+W53Q+I58L	2.59 3.82 2.54	2.98	2 of 9 (3.78)
H35G+Y60W+V64P	nd nd nd	nd	0 of 9
G50Y+G104I+Y105P	5.53 5.66 nd	5.60	0 of 9
H35G+A61E+K65G	5.81 4.81 nd	5.31	3 of 9 (3.99)

The last 6 entries again:

changes	log10 Kd, replicates	mean log10 Kd (nM)	control signals
A33G+K65G+Y105V	2.29 3.92 nd	3.10	0 of 9
T28F+G56I+F106V	nd nd nd	nd	0 of 9
H35C+W53Q+I58L	2.59 3.82 2.54	2.98	2 of 9 (3.78)
H35G+Y60W+V64P	nd nd nd	nd	0 of 9
G50Y+G104I+Y105P	5.53 5.66 nd	5.60	0 of 9
H35G+A61E+K65G	5.81 4.81 nd	5.31	3 of 9 (3.99)